Assay results taken from patent US6849602B1, “Compositions for alleviating neuropathic pain with prosaposin receptor agonists” (The Regents of the University of California, priority 1996, dated 2005).

What was measured:
[1] = system: Chung model rats; assay: Tactile allodynia (von Frey, 50% paw withdrawal threshold) after bolus intrathecal injection in Chung model rats; format: in vivo, rat; settings: any concentration tested
Description: This EXAMPLE describes the effects of bolus intrathecal injection of an active fragment of prosaposin in the Chung experimental model of peripheral neuropathic pain.
Each of the three peptides were obtained in pure form by chemical synthesis, dissolved in sterile PBS and buffered to a neutral pH.
The surgical procedure previously described by Kim and Chung, supra (1992) was performed on male Sprague-Dawley rats weighing 120 to 150 grams to induce an allodynic state. Briefly, the rats were anesthetized with halothane; subsequently, the left L-5 and L-6 spinal nerves were isolated adjacent to the vertebral column and ligated with 6.0 silk suture distal to the dorsal root ganglion.
After a ten to fourteen day post operative recovery period, a spinal catheter was introduced. Five days following the second surgery, intrathecal drug administration was accomplished using a gear driven micro-injection syringe connected to a spinal catheter inserted through the foramen magnum. Prior to testing, the rats were placed in clear plastic wire meshed cages and allowed to acclimate.
To assess the 50% mechanical threshold for paw withdrawal, a von Frey hair was applied to the hind foot avoiding the foot pad. […] The X-axis indicates the time after the injection at which point the hypersensitivity to pressure on the foot pad was measured.

[2] = In vivo tissue distribution / blood-brain barrier crossing of radiolabeled peptide SEQ ID NO:2; set-up: species or system rat
Description: The prosaposin-derived peptide SEQ ID NO:2 also was assayed for ability to cross the blood-brain barrier as follows. A female Sprague-Dawley rat was anesthesized with methoxyflurane, and approximately 20 μg peptide SEQ ID NO:2 (3.2×10^8 cpm) was injected into the tail vein. After 40 minutes, the rat was sacrificed by ether anesthesia and perfused with about 250 ml PBS through the heart. The total amount of peptide in brain, liver and blood was calculated as a percentage of the injected material as shown in TABLE 6. In order to determine the localization in brain, the capillary depletion method of Triguero, J. Neurochem. 54:1882 (1990) was used to separate brain tissue into a parenchyma fraction and a brain capillary fraction.
In a similar experiment in which rats were sacrificed after three hours treatment with SEQ ID NO:2, 0.06% of the peptide was evident in brain, of which 85% was in the parenchyma. […] The percentage of peptide which crossed the blood brain barrier is in the mid-range of peptides which cross the barrier as set forth in Banks, supra (1992).

[3] = Percentage of intact radiolabeled material in brain, liver and blood by HPLC; format: in vivo, rat
Description: In order to determine the percentage of intact material in the brain, liver and blood, radiolabeled material (SEQ ID NO:2) isolated from the tissues was analyzed by high pressure liquid chromatography. To normalize for degradation during processing of tissue homogenates, peptide SEQ ID NO:2 was added to tissue homogenates. The extent of degradation observed with the added peptide material was used to normalize for degradation during tissue processing. After normalization, the results were as follows: SEQ ID NO:2 was about 60% intact in brain; about 80% intact in liver and about 40% intact in blood. In a second experiment, peptide SEQ ID NO:2 was about 68% intact in brain.

[4] = 40 minutes, capillary depletion method
[5] = Blood, 40 minutes after tail vein injection
[6] = Liver, 40 minutes after tail vein injection

Cys-Glu-Phe-Leu-Val-Lys-Glu-Val-Thr-Lys-Leu-Ile-Asp-Asn-Asn-Lys-Thr-Glu-Lys-Glu-Ile-Leu [SEQ ID NO:1]
side effects such as sedation [1]: No significant side effects such as sedation were observed

Thr-D-Ala-Leu-Ile-Asp-Asn-Asn-Ala-Thr-Glu-Glu-Ile-Leu-Tyr [SEQ ID NO:2]
side effects such as sedation [1]: No side effects were observed
peptide present in brain found in brain capillary [2, 4]: 13%
peptide present in brain localized to brain parenchyma [2, 4]: 87%
PERCENTAGE OF INITIAL CPM [2, 5]: 31.6%
TOTAL CPM IN TISSUE [2, 5]: 1.01 × 10^8 CPM
PERCENTAGE OF INITIAL CPM ([2]; Brain, 40 minutes after tail vein injection): 0.050%
TOTAL CPM IN TISSUE ([2]; Brain, 40 minutes after tail vein injection of 3.2×10^8 cpm): 161,000 CPM
PERCENTAGE OF INITIAL CPM [2, 6]: 1.625%
TOTAL CPM IN TISSUE [2, 6]: 5.2 × 10^6 CPM
brain peptide in the parenchyma ([2]; after three hours): 85%
peptide evident in brain ([2]; after three hours): 0.06%
intact peptide in blood ([3]; HPLC, after normalization): about 40%
intact peptide in brain ([3]; HPLC, after normalization): about 60%
intact peptide in liver ([3]; HPLC, after normalization): about 80%
intact peptide in brain ([3]; second experiment): about 68%
